Data taken from US12139488B2, “Pyrido[3,2-d]pyrimidine compounds uses thereof for treating a proliferative disease” (Universite de Montreal, priority 2021, dated 2024).

System: pERK in HCT-116 cells (KRAS G13D)
Assay: Phospho-ERK inhibition (AlphaLISA SureFire Ultra p-ERK 1/2), HCT116
Conditions: RAS-mutant HCT116 cells, FIG. 1
Description: All cancer cell lines (A375, A101D, A2058, RKO, HT29 SK-MEL 30, IPC298, HepG2, HCT-116, Lovo, SWV620, SW480, NCI-H358, NCI-H2122, Calu-6, NCIH2087, NCIH1755, NCIH1666 and Mewo) were obtained from ATCC and cultured in RPMI-1640 medium (Gibco) supplemented with 5% heat inactivated fetal bovine serum (FBS, Wisent) at 37° C. under 5% CO2. Cells were maintained in T175 flasks (Greiner). They were passaged by removing the culture medium, washing once in 10 mL of room temperature Phosphate Buffered Saline (PBS; Wisent) and incubating at 37° C. with 2 mL of 0.05% Trypsin (Thermo-Fisher). Trypsin was then inactivated by adding complete growth medium and the cells were then replated in a T175 culture dish at the appropriate dilution. All cell lines were routinely tested for mycoplasma contamination. Tissue type and mutational status of each cell line can be found in Table B.
AlphaLISA® SureFire® Ultra™ p-ERK 1/2 (Thr202/Tyr204) analysis was conducted on cells plated in 100 μL of complete RPMI-1640 growth medium in 96-well flat-bottomed transparent dishes (Costar) at a density indicated in Table C. Cells were maintained overnight at 37° C. under 5% CO2 before treatment with compounds' dilution series for one hour. The cell density in cells/cm^2 corresponds to cell number divided by the area of one well of a 96-well plate ([…]). […]
After treatment, media was removed and cells were lysed in 50 μL of 1× AlphaScreen Ultra Lysis Buffer (Perkin Elmer). […] After completion of the reactions, the signals were recorded on an EnVision plate reader (Perkin Elmer) using built in AlphaLISA® settings.
The effect of each compound dilution on the pERK signal was expressed in % inhibition and calculated as follows. […]
The ability of each compound to inhibit pERK signal was expressed as an IC50 value obtained by plotting the inhibition values for each data point of a dilution series and fitting the obtained curves using a log(agonist) versus response-variable slope (four parameters) function using GraphPadPrism (V7.0) or Dotmatics Screening Ultra platform. […]

| YMIN of pERK IC50 dose response curve (paradoxical induction of pERK signaling) [%] | SMILES |
| --- | --- |
| > −20 | O=C(c1nn(-c2ccc3ncnc(Nc4c(F)ccc(NS(=O)(=O)c5cccc(Cl)c5Cl)c4F)c3n2)c2ccccc12)N1CCOCC1 |
| > −20 | CN1CCN(C(=O)c2cn(-c3ccc4ncnc(Nc5c(F)ccc(NS(=O)(=O)c6ccccc6Cl)c5F)c4n3)c3ccccc23)CC1 |
| > −20 | Cc1c(Cl)cccc1S(=O)(=O)Nc1ccc(F)c(Nc2ncnc3ccc(-n4nc(C(=O)N5CCN(CCO)CC5)c5ccccc54)nc23)c1F |
